Test results as given in patent US20210393614A1, “QUINONE REDUCTASE 2 INHIBITORS FOR USE AS NEUROPROTECTIVE AGENTS” (DUKE UNIVERSITY, priority 2018, published 2021).

Test system: intracranial hemorrhagic injury
Experiment: Mouse model of intracranial hemorrhagic injury
Conditions: in vivo, ip

With `COc1cc(NC(C)CCCN)c2ncccc2c1` (stereo not shown) [primaquine, reference compound] the “worsening in motor function” value was 35%.
